Laboratory results as given in PubChem BioAssay AID588478 (ICCB-Longwood Screening Facility, Harvard Medical School, 2011).
Only a part is listed here, and it is no random draw. Active and inactive are the calls of the source.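 The calls were made as follows: active = mean inhibition over replicate wells above about 20% (limit read from the data); inactive = the rest.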

Protein sequences, listed by entry. Tags and fused reporters are not part of them.
UniProt Q9Y5K5, whole entry: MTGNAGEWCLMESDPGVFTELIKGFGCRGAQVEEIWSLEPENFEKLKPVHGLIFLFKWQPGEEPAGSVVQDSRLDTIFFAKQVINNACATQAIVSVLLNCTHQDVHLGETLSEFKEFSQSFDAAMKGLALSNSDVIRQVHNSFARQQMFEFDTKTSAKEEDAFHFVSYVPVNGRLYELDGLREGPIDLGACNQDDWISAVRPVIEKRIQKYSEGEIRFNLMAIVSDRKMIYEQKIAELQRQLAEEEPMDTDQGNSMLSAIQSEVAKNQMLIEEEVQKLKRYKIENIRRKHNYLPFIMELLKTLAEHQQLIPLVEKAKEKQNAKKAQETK

These compounds were tested against Ubiquitin carboxyl-terminal hydrolase isozyme L5 (Homo sapiens) (UniProt Q9Y5K5) (assay: inhibitors of human UCH37 deubiquitinase, primary screen, biochemical, Ub-AMC cleavage, fluorescence (AID 588478;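 also: 0% = compound-free wells with enzyme and 100% = wells lacking proteasome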)). Settings: purified proteasome/UCH37, Ub-AMC cleavage fluorescence; hits give high values; concentration not given here.
Method in brief: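 Test system – human UCH37 enzyme supplied as purified proteasome complex · Incubation – 30 min preincubation with enzyme, 25 min cleavage at room temperature · Detection – AMC fluorescence from Ub-AMC cleavage, excitation 355 nm, emission 460 nm · Benchmarks – no-proteasome wells (full inhibition) and compound-free wells (no inhibition)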

| Structure (SMILES) | inhibition |
| --- | --- |
| O=C(NCC1(N2CCCCC2)CCCCC1)c1cncc(Br)c1 | inactive: 0.378% |
| CCCOc1ccc(C(=O)NCC2(N(C)C)CCCCC2)cc1OC | inactive: 3.37% |
| COc1ccc(CN(CCCl)CCCl)cc1Cl | inactive: 5.97% |
| CN(C)c1cccc(C(=O)NCC2(N3CCCCC3)CCCCC2)c1 | inactive: -14.5% |
| CC(C)c1ccc(NC2CCN(C(=O)OC(C)(C)C)CC2)cc1 | inactive: 2.74% |
| COc1cc(OC)c(C(=O)NCC2(N(C)C)CCCCC2)cc1OC | inactive: -0.94% |
| O=C(NCC1(N2CCOCC2)CCCCC1)c1cc(F)c(F)cc1Cl | inactive: -2.44% |
| O=C(NCC1(N2CCCCC2)CCCCC1)c1cccc(C(F)(F)F)c1 | inactive: 3.41% |
| CN1CCN(CCOC(=O)C(O)(c2ccccc2)c2ccccc2)CC1 | inactive: 0.424% |
| COc1ccc(NC2CCN(C(=O)OC(C)(C)C)CC2)cc1 | inactive: 4.42% |
| CC(C)c1ccc(C(=O)NCC2(N3CCOCC3)CCCCC2)cc1 | inactive: -0.0869% |
| COc1cc(C(=O)NCC2(N3CCCCC3)CCCCC2)ccc1OC(F)F | inactive: 6.68% |
| O=C(NCC1(N2CCOCC2)CCCCC1)c1cc(=O)[nH]c2ccccc12 | inactive: -3.96% |
| O=C(NCC1(N2CCCCC2)CCCCC1)c1ccc(OC(F)F)cc1 | inactive: 0.492% |
| O=C(NCC1(N2CCCCC2)CCCCC1)c1cccc([N+](=O)[O-])c1 | inactive: 3.53% |
| CSc1ccc(C(=O)NCC2(N3CCOCC3)CCCCC2)cc1 | inactive: 1.38% |
| CCN1CCC(Nc2ccc(Cl)cc2)CC1 | inactive: -0.898% |
| N#CC1(Nc2ccccc2)CCN(CCc2ccccc2)CC1 | inactive: 4.52% |
| COc1cc(C(=O)NCC2(N(C)C)CCCCC2)ccc1OC(F)F | inactive: 7.76% |
| CCOC(=O)N1CCC(Nc2cccc(C)c2)CC1 | inactive: 0.926% |
| CCOc1ccc(C)cc1CN(CCCl)CCCl | inactive: 10.5% |
| O=C(NCC1(N2CCCCC2)CCCCC1)c1ccc(F)cc1 | inactive: 0.139% |
| O=P1(N(CCCl)CCCl)SCCCS1 | inactive: 2.03% |
| CCCCOc1ccc(C(=O)NCC2(N3CCOCC3)CCCCC2)cc1 | inactive: 1.35% |

| Structure (SMILES) | inhibition |
| --- | --- |
| COc1ccc(NC2CCN(CCc3ccccc3)CC2)c(OC)c1 | inactive: 0.573% |
| CCOC(=O)N1CCC(Nc2ccc(F)cc2)CC1 | inactive: 0.23% |
| O=C(NCC1(N2CCOCC2)CCCCC1)c1cc2ccccc2o1 | inactive: 3.29% |
| O=C(NCC1(N2CCCCC2)CCCCC1)c1ccc(Cl)nc1 | inactive: 4.66% |
| Cc1cc(C)cc(N(C(=O)c2ccccc2)C2CCN(C(=O)OC(C)(C)C)CC2)c1 | inactive: 2.79% |
| CCOC(=O)N1CCC(Nc2ccc(OC)cc2)CC1 | inactive: 4.11% |
| O=C(OC1CN2CCC1CC2)C1c2ccccc2Oc2ccccc21 (stereo not given) | inactive: -9.47% |
| O=C(NCC1(N2CCCCC2)CCCCC1)c1ccc(Cl)s1 | inactive: -0.227% |
| N#CC1(Nc2ccccc2)CCN(Cc2ccccc2)CC1 | inactive: 4.75% |
| COc1ccc(Cl)cc1C(=O)NCC1(N2CCOCC2)CCCCC1 | inactive: 5.29% |
| O=C(NCC1(N2CCCCC2)CCCCC1)c1ccc(=O)[nH]c1 | inactive: 0.933% |
| O=C(NCC1(N2CCCCC2)CCCCC1)c1cccs1 | inactive: 1.53% |
| COc1ccc(C(=O)NCC2(N3CCCCC3)CCCCC2)cc1 | inactive: 1.23% |
| COc1ccc(C(=O)NCC2(N3CCCCC3)CCCCC2)c(OC)c1OC | inactive: 3.1% |
| CC(C)(C)OC(=O)N1CCC(N(C(=O)c2ccccc2)c2ccc(F)cc2)CC1 | inactive: 1.39% |
| CSc1ccccc1C(=O)NCC1(N2CCCCC2)CCCCC1 | inactive: 1.67% |
| Cc1cccc(NC2(C#N)CCN(Cc3ccccc3)CC2)c1 | inactive: 1.51% |
| COc1cc(OC)cc(C(=O)NCC2(N3CCOCC3)CCCCC2)c1 | inactive: 0.871% |
| COc1cccc(C(=O)N(c2cc(C)cc(C)c2)C2CCN(C(=O)OC(C)(C)C)CC2)c1 | inactive: 6.41% |
| CN1CCC(Nc2ccc(Cl)cc2)CC1 | inactive: 2.49% |
| CCOc1ncccc1C(=O)NCC1(N2CCOCC2)CCCCC1 | inactive: 0.966% |
| CN1CCC(Nc2ccc(F)c(Cl)c2)CC1 | inactive: 4.36% |
| CCCOc1ccc(C(=O)NCC2(N(C)C)CCCCC2)cc1 | inactive: 0.763% |
| CC(C)(C)OC(=O)N1CCC(Nc2ccccc2)CC1 | inactive: 2.02% |

| Structure (SMILES) | inhibition |
| --- | --- |
| O=C(O)C1(Nc2ccccc2)CCN(Cc2ccccc2)CC1 | inactive: -0.318% |
| Cc1ccccc1NC1(C#N)CCN(Cc2ccccc2)CC1 | inactive: 4.27% |
| CCN1CCC(Nc2cccc(F)c2)CC1 | inactive: 1.35% |
| O=C(NCC1(N2CCCCC2)CCCCC1)c1ccco1 | inactive: 5.27% |
| Cn1c(=O)[nH]cc(N(CCCl)CCCl)c1=O | inactive: 0.898% |
| CN(C)c1ccc(C(=O)NCC2(N3CCCCC3)CCCCC2)cc1 | inactive: 1.12% |
| COc1cc(OC)cc(C(=O)NCC2(N3CCCCC3)CCCCC2)c1 | inactive: 0.231% |
| CC(=O)N(c1ccccc1)C1CCNCC1 | inactive: 0.406% |
| Cc1ccc(NC2(C#N)CCN(Cc3ccccc3)CC2)cc1 | inactive: 0.47% |
| Cc1ccc(C(=O)NCC2(N3CCCCC3)CCCCC2)o1 | inactive: -3.43% |
| Fc1ccccc1NC1CCN(Cc2ccccc2)CC1 | inactive: -2.2% |
| c1ccc(CN2CCC(Nc3ccccc3)CC2)cc1 | inactive: 5.93% |
| CCCN1CCC(Nc2cc(OC)cc(OC)c2)CC1 | inactive: -1.42% |
| CN(C)C1(CNC(=O)c2cccc(C#N)c2)CCCCC1 | inactive: -4.39% |
| CC(C)(C)OC(=O)N1CCC(N(C(=O)c2ccccc2)c2ccc(Cl)cc2)CC1 | inactive: 3.88% |
| N#Cc1ccc(C(=O)NCC2(N3CCCCC3)CCCCC2)cc1 | inactive: 1.64% |
| CCOC(=O)N1CCC(Nc2ccc(C)cc2)CC1 | inactive: -0.188% |
| O=C(OC1CN2CCC1CC2)C1c2ccccc2C=Cc2ccccc21 (stereo not given) | inactive: 3.22% |
| CCc1cc(C(=O)NCC2(N3CCCCC3)CCCCC2)sc1C | inactive: 6.33% |
| O=C(NCC1(N2CCOCC2)CCCCC1)c1cc(Br)ccc1Cl | inactive: 3.23% |
| COc1cc(C(=O)NCC2(N3CCOCC3)CCCCC2)cc(OC)c1C | inactive: 2.41% |
| COc1ccc(C(=O)NCC2(N3CCOCC3)CCCCC2)cc1OC | inactive: 2.63% |
